Data reported in patent publication US20220265667A1, “ETIFOXINE FOR USE IN THE TREATMENT OF DISEASES RELATED TO ACTIVATED MAST CELLS” (priority 2019, published 2022).

Test system: patient with therapy-resistant systemic mastocytosis
Assay: Human in-vivo off-label clinical test, symptom intensity by visual analog score (VAS)
Details: 6 week oral treatment, one patient
Protocol: A human in-vivo clinical test was conducted treating a patient with therapy-resistant systemic mastocytosis with off-label oral application of Etifoxine in full consent and patient agreement. The results of the clinical test were closely monitored, captured and documented together with patient. The patient is and diagnosed with systemic mastocytosis (WHO criteria, KIT816V positiv) with official diagnosis. The disease course over the past 25 year has been progressive and increasing therapy-resistant leading to job disability in the year 2019. The current daily treatment of the patient is: H1 antihistamine 3× daily, cromolyn 4×200 mg daily, PPI 110 mg daily, Vitamine C/Vitamine D upon need, Actonel, upon need decortin 40 to 60 mg. Xolair has been discontinued after 7 years upon onset of serum disease, and the patient was therapy-resistant towards the kinase-inhibitors Imatinib, Dasatinib and Sunitinib. […]
The symptom intensity was determined by a visual analog score (VAS; 0=no symptoms, 10=excruciating symptom intensity) on a weekly basis starting with a VAS baseline value before starting the intake of Etifoxine.

For `CCNC1=Nc2ccc(Cl)cc2C(C)(c2ccccc2)O1` (racemic) [Etifoxine, 6-Chloro-2-N-ethyl-4-methyl-4-phenyl-4H-3,1-benzoxazine-2-amine], the “reduction of clinical symptom intensity in each clinical symptom category” value was “significant in each category”.
